Assay results as given in patent publication US20100330029A1, “Cancer Treatments with Radiation and Immunocytokines” (Merck Patent GmbH, priority 2008, published 2010).

Tests used:
[1] = tested on: Lewis Lung Carcinoma cells; assay: rechallenge of cured mice with Lewis Lung Carcinoma cells; format: in vivo; conditions: LLC-8, LLC-9; combination with chemoradiation
Protocol: The ability of irradiation followed by intravenous administration of the exemplary immunocytokine EMD521873 to generate a long lasting immune response was tested by rechallenging cured mice with tumor cells. Mice bearing Lewis Lung Carcinoma tumors were originally treated with either fractionated radiation (3.6 Gy/d, d0-4) plus cisplatin (4 mg/kg, d0), EMD521873 alone (5 mg/kg, d7, 8, 9), or the combination of EMD521873 plus chemoradiation. The number of complete responses was determined and then those mice that had achieved complete remissions for greater than 50 days were rechallenged by s.c. injection of LLC cells followed by monitoring of tumor growth compared to naïve mice that had not previously been treated.

[2] = tested on: Lewis lung carcinoma (LLC); assay: tumor growth assay, Lewis lung carcinoma model; format: in vivo, mice; conditions: LLC-8, LLC-9
Protocol: LL/2 (LLC) cells, a murine Lewis lung carcinoma cell line, were maintained in DMEM, supplemented with 10% heat-inactivated fetal bovine serum, L-glutamine, penicillin/streptomycin (Life Technologies, Inc.) at 37° C. and 7% CO2. LLC cells were implanted in female C57BL/6 mice.
For the tumor growth assay, cells growing exponentially in culture were injected as a single cell suspension in 100 μl of PBS intramuscularly into the upper legs of the mice. In experiments using a dual tumor model, cells were also implanted in the flanks of the mice. After tumors had become established, treatment was initiated (day 0). In Experiment LLC-7, tumors were implanted in the flank until established. […] Thereafter, animal survival was monitored. […] Mice were treated on days 0 to 6 and day 17, and tumor size was measured twice weekly for the duration of the study.
Tumors were measured with calipers in three dimensions for the duration of the experiment. Tumor volumes were calculated using the equation: […]
Data from the subcutaneous tumor growth assay are presented in graphic form depicting average and standard deviations (sd) of tumor volumes or weights during and after dosing. Animal weight changes were determined by subtracting the animal weight at each time point from the initial body weight, on day 0, then dividing by the initial body weight and multiplying by 100. […]

IL-2: exemplary cytokine IL-2 used as comparator with chemoradiation [reference compound]
mice with complete responses immune to rechallenge with LLC cells [1]: neither of the 2 | animals with complete response ([2]; combination with chemoradiation): 2/6 | T/C ([2]; day 21, combination with chemoradiation (cisplatin 4 mg/kg d0 plus 3.6 Gy/d d0-4)): 0.09
